Measurements: patent US7723329B2, “Substituted-3-sulfonylindazole derivatives as 5-hydroxytryptamine-6 ligands” (Wyeth LLC, priority 2005, dated 2010)

By UniProt entry, the sequences of proteins in these tests, tags left out.
UniProt P50406, whole entry: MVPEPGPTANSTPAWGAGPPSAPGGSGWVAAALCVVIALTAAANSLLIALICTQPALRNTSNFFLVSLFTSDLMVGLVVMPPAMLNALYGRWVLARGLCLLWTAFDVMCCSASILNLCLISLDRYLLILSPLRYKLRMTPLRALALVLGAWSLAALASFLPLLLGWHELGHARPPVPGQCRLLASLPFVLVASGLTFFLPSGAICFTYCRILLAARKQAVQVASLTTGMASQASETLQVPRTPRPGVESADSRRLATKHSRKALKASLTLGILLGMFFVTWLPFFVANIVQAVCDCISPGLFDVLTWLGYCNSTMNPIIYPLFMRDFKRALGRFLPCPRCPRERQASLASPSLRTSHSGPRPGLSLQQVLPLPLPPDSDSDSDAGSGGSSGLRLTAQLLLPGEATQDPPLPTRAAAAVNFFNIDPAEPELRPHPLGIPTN

Biological target: T1, human cloned 5-HT6 receptors (Homo sapiens, UniProt P50406)
T1 construct: expressed in transfected cells; host or cells: HeLa cells
Assay: 5-HT6 binding affinity, [3H]-LSD displacement
Details: membranes of Hela cells expressing human cloned 5-HT6 receptors; [3H]-LSD 3.0 nM; 120 minutes at room temperature
Procedure: The affinity of test compounds for the serotonin 5-HT6 receptor was evaluated in the following manner. Cultured Hela cells expressing human cloned 5-HT6 receptors were harvested and centrifuged at low speed (1,000×g) for 10.0 minutes to remove the culture media. The harvested cells were suspended in half volume of fresh physiological phosphate buffered saline solution and recentrifuged at the same speed. This operation was repeated. The collected cells were then homogenized in ten volumes of 50 mM Tris.HCl (pH 7.4) and 0.5 mM EDTA. The homogenate was centrifuged at 40,000×g for 30.0 min and the precipitate was collected. The obtained pellet was resuspended in 10 volumes of Tris.HCl buffer and recentrifuged at the same speed. The final pellet was suspended in a small volume of Tris.HCl buffer and the tissue protein content was determined in aliquots of 10-25 μl volumes. […]
The bound complex caught on the filter disk was allowed to air dry and the radioactivity is measured in a Packard TopCount® equipped with six photomultiplier detectors, after the addition of 40.0 μl Microscint®-20 scintillant to each shallow well. The unifilter plate was heat-sealed and counted in a PackardTopCount® with a tritium efficiency of 31.0%.
Specific binding to the 5-HT6 receptor was defined as the total radioactivity bound less the amount bound in the presence of 10.0 μM unlabeled methiothepin. […]

pKi: 8.00 to 11.00
SMILES: CC(C)[C@H](N)CNc1ccc2[nH]nc(S(=O)(=O)c3cccc4ccccc34)c2c1 [Example 160, (S)-3-Methyl-N1-[3-(naphthalene-1-sulfonyl)-1H-indazol-5-yl]-butane-1,2-diamine dihydrochloride]

pKi: −log10 of the molar value. Structures can show the parent of a compound that is named as a salt.
